For the assay, the system named is breast cancer tumor in the liver with over-expression of the HER2 receptor. Kind of assay: Targeted SWIR imaging of a liver tumor with near infrared dye-antibody conjugate. The conditions noted are these: mouse with HER2 over-expressing breast cancer tumor in liver; conjugate injected intraperitoneally 15 mg/kg; imaged three days after injection. The class given is in vivo. The procedure:
The dye-antibody conjugate was injected intraperitoneally into a mouse at a dose of 15 mg/kg body weight. Three days after the initial injection of the dye-antibody conjugate, the mouse was imaged using SWIR fluorescence detection.
As a control experiment, IRDye 800CW was conjugated to IgG, a non-specific antibody. The conjugate was injected into a second mouse model implanted with the same tumor in the same location.
FIG. 4 presents a white light image of both the control mouse on the left and the trastuzumab-labeled mouse on the right with room-lights on for positioning reference. FIG. 5 presents an SWIR image of both mice in the same positions.

The source of these data is patent publication US11579088B2, “Device and method for imaging shortwave infrared fluorescence” (Massachusetts Institute of Technology, priority 2016, dated 2023).

Consider “IRDye800-trastuzumab: Trastuzumab, a HER2-receptor targeting antibody, conjugated to IRDye 800CW using a commercially available labeling kit”, for which the “SWIR fluorescence signal indicating the position of the tumor” value is on record as “strong fluorescence signal”.
